How the values were obtained:
[1] = Dynamic vapor sorption (DVS) hygroscopicity; type: physicochemical; conditions: for Hygroscopicity 40% RH: Table 3, 40% RH; for Hygroscopicity 75% RH: Table 3, 75% RH; for Hygroscopicity 90% RH: Table 3, 90% RH
Description: DVS—Measurement of Dynamic Vapor Sorption: DVS experiments have been carried out using the DVS-HT instrument (Surface Measurement Systems, London, UK). This instrument measures the uptake and loss of vapor gravimetrically using a recording ultra-microbalance with a mass resolution of ±0.1 μg. The vapor partial pressure (±1.0%) around the sample is controlled by mixing saturated and dry carrier gas streams using electronic mass flow controllers. The desired temperature is maintained at ±0.1° C. […] The sample was loaded and unloaded at 40% RH and 25° C. (typical room conditions). A moisture sorption isotherm was performed as outlined below (2 scans giving 1 complete cycle). The software uses a least squares minimization procedure together with a model of the mass relaxation, to predict an asymptotic value. The measured mass equilibration value must be within 2% of that predicted by the software before proceeding to the next % RH value. The minimum equilibration time was set to 1 hour and the maximum to 4 hours.

[2] = pH column of water solubility table (Table 2)
[3] = 4 week, 40° C. and 75% RH

Substance: pridopidine L-tartrate
- XRPD pattern before and after the DVS test [1]: no change in XRPD pattern
- relative humidity up to which substantially non-hygroscopic [1]: at least 90%
- DVS weight gain ([1]; 40% RH): 0.02%
- DVS weight gain ([1]; 70% RH): 0.73%
- DVS weight gain ([1]; 90% RH): 1.98%
- Hygroscopicity 40% RH [1]: 0.02%
- Hygroscopicity 75% RH [1]: 0.7%
- Hygroscopicity 90% RH [1]: 2.0%
- total uptake in moisture (DVS) ([1]; entire RH range, larger-scale batch): ~2.3%
- pH [2]: 3.3
- chemical and physical stability [3]: acceptable

Substance: pridopidine oxalate
- takes up water ([1]; 0% RH): 0.4%
- DVS weight gain ([1]; 70% RH): 1.0%
- DVS weight gain ([1]; 90% RH): 1.7%
- Hygroscopicity 40% RH [1]: 0.4%
- Hygroscopicity 75% RH [1]: 1.0%
- Hygroscopicity 90% RH [1]: 1.7%

Substance: pridopidine succinate
- Deliquescence during the DVS test [1]: deliquesced
- Hygroscopicity in words [1]: very hygroscopic
- DVS weight gain ([1]; 40% RH): 1%
- DVS weight gain ([1]; 70% RH): 15%
- DVS weight gain ([1]; 90% RH): 36%
- Hygroscopicity 40% RH [1]: 0.01%
- Hygroscopicity 75% RH [1]: 12%
- Hygroscopicity 90% RH [1]: 36%

Source: patent US9796673B2, “L-tartrate salt of pridopidine” (TEVA PHARMACEUTICALS INTERNATIONAL GMBH, priority 2014, dated 2017)
